# Data as given in patent US5789386A, “Fluorine-containing anthracycline derivatives having hydroxyl groups(s) mono- or di-o-aminoalkanoylated in the sugar moiety thereof” (priority 1995, dated 1998).
# Tested on: adriamycin-resistant P388 cells (P388/ADR)
# Assay: In vitro growth inhibition of adriamycin-resistant P388 cells (P388/ADR), 72 hours
# Assay type: cell-based, mouse
# Conditions: test compounds as trifluoroacetate
smiles,measurement,value
"COc1cccc2c1C(=O)c1c(O)c3c(c(O)c1C2=O)C[C@@](O)(C(=O)CO)C[C@@H]3O[C@H]1C[C@H](OC(=O)CN)[C@H](OC(=O)CN)[C@H](C(F)(F)F)O1 [Compound 25, 7-O-(2,6-dideoxy-6,6,6-trifluoro-3,4-di-O-glycyl-α-L-lyxo-hexopryranosyl)adriamycinone]",IC50,0.29 µg/mL
